In publication PMC7115756:

Target: Recombinant wild-type human transthyretin (wt rhTTR) (human) (UniProt P02766)
Assay: ITC

Aβ(1–42) peptide (peptide; modification not given; other documents disagree on this pair)
Kd: 940 nM | stoichiometry N: 1
